Patent US6570013B2, “Salts of zopolrestat” (dated 2003)

Assay: Measurement of water solubility (distilled water added until clear solution)
Conditions: weight of salt divided by volume of clear solution

## [4-oxo-(5-trifluoromethyl-benzothiazol-2-ylmethyl)-3,4-dihydro-phthalazin-1-yl]-acetic acid triethanolamine salt
  water solubility: 6600 µg/mL
